Assay results from US20260116921A1, “PEPTIDE INHIBITORS OF INTERLEUKIN-23 RECEPTOR AND THEIR USE TO TREAT INFLAMMATORY DISEASES” (priority 2018, published 2026).
pIC50: −log10 of the molar value.

Columns and labels:
in vitro [1] = settings: simulated gi fluid, pH 6.8
IL-23R = molecular target: T1, IL-23R (Homo sapiens, UniProt Q5VWK5); test: DB cells IL23R pSTAT3 cell assay (pStat3 HTRF); assay type: cell-based; settings: Table E3, IL-23 0.5 nM, 30 minutes at 37° C.
T1 sequence (Q5VWK5 24-629): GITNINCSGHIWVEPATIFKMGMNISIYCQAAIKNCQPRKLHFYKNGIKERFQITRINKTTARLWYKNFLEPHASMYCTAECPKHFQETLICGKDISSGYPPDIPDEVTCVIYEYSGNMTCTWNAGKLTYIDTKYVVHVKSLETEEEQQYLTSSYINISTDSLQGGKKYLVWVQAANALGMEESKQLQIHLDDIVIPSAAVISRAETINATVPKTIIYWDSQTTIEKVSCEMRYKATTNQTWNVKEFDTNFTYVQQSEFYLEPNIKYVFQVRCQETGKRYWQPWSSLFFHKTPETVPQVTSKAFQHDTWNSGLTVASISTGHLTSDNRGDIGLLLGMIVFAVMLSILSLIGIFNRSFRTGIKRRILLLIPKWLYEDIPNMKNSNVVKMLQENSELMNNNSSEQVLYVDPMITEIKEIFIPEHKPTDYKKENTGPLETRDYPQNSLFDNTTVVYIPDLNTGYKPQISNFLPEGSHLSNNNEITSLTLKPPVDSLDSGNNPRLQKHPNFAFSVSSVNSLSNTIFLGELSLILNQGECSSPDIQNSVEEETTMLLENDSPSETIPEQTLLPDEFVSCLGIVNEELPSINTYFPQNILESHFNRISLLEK
Text: Human ELISA indicates the IL23-IL23R competitive binding assay described below, Rat ELISA indicates the rat IL-23R competitive binding ELISA assay described below, and pStat3HTRF indicates the DB cells IL-23R pSTAT3 cell assay described below. The peptides depicted in Table E1 are cyclized via a disulfide bridge formed between two Pen residues in these peptides. The peptides depicted in Table E2 are cyclized via a thioether bond between the indicated amino acid residues. Table E2 provides an illustrative structure depicting thioether cyclization, which is indicated in the table by the term “cyclo,” with the cyclic region bracketed immediately following the term “cyclo.” For certain peptides, the residue Abu is present where indicated, whereas in other embodiments, e.g., those related to the non-cyclized form, the Abu may be referred to as a hSer(Cl) or homoSer residue.
DB Cells IL23R pSTAT3 Cell Assay
IL-23 plays a central role in supporting and maintaining Th17 differentiation in vivo. […] Changes in phospho-STAT3 levels in the cell lysates were detected using the Cisbio HTRF pSTAT3 (Tyr705) Cellular Assay Kit (Cisbio #62AT3PEH), according to manufacturer's Two Plate Assay protocol.

NK cells = test: NK cell based assay (IL-23/IL-18-induced IFNγ, Quantikine ELISA); settings: human primary NK cells, IL-23 at EC50 to EC75 + IL-18 10 ng/mL, IFNγ after 20 to 24 hours
Description: killer (NK) cells, purified from human peripheral blood of healthy donors by negative selection (Miltenyi Biotech, Cat #130-092-657), were cultured in complete media (RPMI 1640 containing […], L-glutamine and penicillin-streptomycin) in the presence of IL-2 (RnD, Cat #202-IL-010/CF) at 25 ng/mL. After 7 days, cells were centrifuged, and resuspended in complete media at IE6 cells/mL. […] After 20 to 24 hours, IFNγ in the supernatant was quantified using Quantikine ELISA (RnD, Cat #DIF50).

[2] = Stability in simulated gastric fluid (SGF); assay type: in vitro ADME; settings: porcine pepsin, pH=2, 37° C., 20 μM peptide
Description: SGF was prepared by adding 20 mg NaCl, 32 mg porcine pepsin (MP Biochemicals, catalog 02102599), and 70 μl HCl to 10 ml water (final pH=2). Aliquots of SGF (0.5 ml each) were pre-warmed at 37° C. To start the reaction, 1 μl of peptide stock solution (10 mM in DMSO) was added to 0.5 ml SGF and thoroughly mixed such that the final peptide concentration was 20 μM. The reactions were incubated at 37° C. with gentle shaking. At each time point (0, 15, 30, 60 min) 50 μl aliquots were removed and added to 200 ul acetonitrile containing 0.1% formic acid to quench the reaction.

[3] = simulated intestinal fluid, pancreatin, pH 6.8, 37° C.; § matrix is 100 fold dilution of standard SIF concentration
in vitro [4] = settings: human, tissue homogenate, pH 6.8
in vitro [5] = settings: cynomolgus monkey, tissue homogenate, pH 6.8
in vitro [6] = settings: both, SD, rat, plasma

| SMILES | half-life (in vitro [1]) | pIC50 (IL-23R) | pIC50 (NK cells) | SGF t½ [2] | SIF t½ [3] | half-life (in vitro [4]) | half-life (in vitro [5]) | half-life (in vitro [6]) |
| --- | --- | --- | --- | --- | --- | --- | --- | --- |
| CC(=O)NCCCC[C@H](NC(=O)[C@](C)(CCCCN)NC(=O)[C@H](Cc1ccc2ccccc2c1)NC(=O)[C@H](Cc1ccc(OCCN)cc1)NC(=O)[C@H]1NC(=O)[C@H](CCCCNC(=O)Cc2ccccc2)NC(=O)[C@H](Cc2c[nH]c3c(C)cccc23)NC(=O)[C@H]([C@@H](C)O)NC(=O)[C@H](CC(N)=O)NC(=O)[C@@H](NC(C)=O)C(C)(C)SSC1(C)C)C(=O)N[C@@H](CC(N)=O)C(=O)N[C@H](CC(C)C)C(N)=O [compound 318] | 20 h | – | – | – | – | – | – | – |
| CC(=O)NCCCC[C@H](NC(=O)[C@](C)(CC(C)C)NC(=O)[C@H](Cc1ccc2ccccc2c1)NC(=O)[C@H](Cc1ccc(OCCN)cc1)NC(=O)[C@H]1NC(=O)[C@H](CCC(N)=O)NC(=O)[C@H](Cc2c[nH]c3c(C)cccc23)NC(=O)[C@H]([C@@H](C)O)NC(=O)[C@H](CC(N)=O)NC(=O)[C@@H](NC(C)=O)C(C)(C)SSC1(C)C)C(=O)N[C@@H](Cc1c[nH]cn1)C(=O)NCCC(N)=O [compound 214] | – | 8.00 to 9.00 | > 8.00 | 24 h | 24 h | > 24 h | > 24 h | 1 h |
